Test results: patent publication US6583125B2 (priority 1992, dated 2003)

Experiments:
rats = settings: rat, in vivo
[1] = human, in vivo; cited from earlier work

Structure (SMILES): CO[C@@]12[C@H](COC(N)=O)C3=C(C(=O)C(C)=C(N)C3=O)N1C[C@@H]1N[C@@H]12 [mitomycin-c]
- Lesion Diameter (rats): 0.95 cm
- lesion size (rats): 1.45 cm
- Frequency of Phlebitis [1]: Frequent
